Results published in patent publication US10465009B2, “BCMA antigen binding proteins” (Amgen Inc., priority 2012, dated 2019).
“Also recorded” adds a separate entry of the source.

Legend:
[1] = test system: KMS28PE; test: CellTiter-Glo Luminescent Cell Viability Assay, KMS28PE; type: cell-based, human
Method: (§1) The ADCs were tested for the ability to target and kill BCMA-expressing myeloma cells. The CellTiter-Glo® Luminescent Cell Viability Assay is a homogeneous method to determine the number of viable cells in culture based on quantitation of the ATP present, which signals the presence of metabolically active cells. The CellTiter-Glo® Assay is applicable to cytotoxicity assays (see http://www.promega.com/products/cell-health-assays/cell-viability-assays/celltiterglo-luminescent-cell-viability-assay/ for more information). The cell viability assay was used to assess the relative killing capacity of various ADCs on various multiple myeloma cell lines and B-cell lines. […] Luminescence was read on an EnVision™ Multilabel reader (PerkinElmer) or Analyst HT plate reader (LJL Biosciences). The data was analyzed and graphed using GraphPad Prism™ to determine the relative efficacy of the ADCs on various cancer cell lines.
(§2) The 2A1CV5-MCC-DM1, 32B5-MCC-DM1 and 29C12-MCC-DM1 ADCs were tested for the ability to target and kill BCMA-expressing myeloma cells (H929). The CellTiter-Glo® Luminescent Cell Viability Assay is a homogeneous method to determine the number of viable cells in culture based on quantitation of the ATP present, which signals the presence of metabolically active cells. […] Luminescence was read on an EnVision™ Multilabel reader (PerkinElmer) or Analyst HT plate reader (LJL Biosciences). […]

[2] = test system: KMS26; test: CellTiter-Glo Luminescent Cell Viability Assay, KMS26; type: cell-based, human
Method: as §1, §2

[3] = test system: primary myeloma bone marrow mononuclear tumor cells (BMMC); test: Flow cytometry DM1 delivery assay (anti-DM1 antibody), primary myeloma BMMC; type: cell-based, human; conditions: patient BMMC samples
Source text: The human myeloma tumor cell line MM1R, which expresses a relatively low level of BCMA, was used as a relative positive control to assess whether sufficient DM1 was delivered into the cell by 2A1CV5-MCC-DM1 to induce cell death.

[4] = test system: H929 cells; test: CellTiter-Glo Luminescent Cell Viability Assay, H929; type: cell-based, human
Method: The ADCs were tested for the ability to target and kill BCMA-expressing myeloma cells. The CellTiter-Glo® Luminescent Cell Viability Assay is a homogeneous method to determine the number of viable cells in culture based on quantitation of the ATP present, which signals the presence of metabolically active cells. The CellTiter-Glo® Assay is applicable to cytotoxicity assays (see http://www.promega.com/products/cell-health-assays/cell-viability-assays/celltiterglo-luminescent-cell-viability-assay/ for more information). The cell viability assay was used to assess the relative killing capacity of various ADCs on various multiple myeloma cell lines and B-cell lines. The protocol provided in the Cell Titer-Glo kit (Promega G7572) was followed. In short, 5×10^3 target cells in 90 ul RPMI 1640, 10% FBS were aliquoted into clear, flat bottom, white walled 96 well plates (Costar #3903). The ADCs were diluted into a 10× stock to create 500 nM maytansine drug equivalents. Each ADC was serially diluted in 2-fold dilutions in RPMI 1640, 10% FBS starting with 500 nM stock. 10 ul of the 10×ADC dilution series was added to the 90 ul of cells in media (triplicate wells). […] Luminescence was read on an EnVision™ Multilabel reader (PerkinElmer) or Analyst HT plate reader (LJL Biosciences). The data was analyzed and graphed using GraphPad Prism™ to determine the relative efficacy of the ADCs on various cancer cell lines.
The 2A1CV5-MCC-DM1, 32B5-MCC-DM1 and 29C12-MCC-DM1 ADCs were tested for the ability to target and kill BCMA-expressing myeloma cells (H929). The CellTiter-Glo® Luminescent Cell Viability Assay is a homogeneous method to determine the number of viable cells in culture based on quantitation of the ATP present, which signals the presence of metabolically active cells. […] Luminescence was read on an EnVision™ Multilabel reader (PerkinElmer) or Analyst HT plate reader (LJL Biosciences). The data was analyzed and graphed using GraphPad Prism™ to determine the relative efficacy of the ADCs on various cancer cell lines.

[5] = test system: U266; test: CellTiter-Glo Luminescent Cell Viability Assay, U266; type: cell-based, human
Method: as §1, §2

[6] = test system: MM1R; test: CellTiter-Glo Luminescent Cell Viability Assay, MM1R; type: cell-based, human
Method: as §1, §2

[7] = test system: U266 luciferase-labeled myeloma cells; test: U266-luc bone-tropic xenograft model; type: in vivo, NSG mice
Method: In an additional myeloma bone-tropic xenograft model similar to that above, U266 luciferase-labeled myeloma cells that express an average of 9,000 BCMA sites per cell were administered intravenously (1×10^6 cells) into NSG mice. Twenty eight days after tumor inoculation, tumor-bearing animals were randomized based on hind limb bioluminescence (tumor burden) into groups of ten animals each and dosed intravenously or intraperitoneally as denoted by the red Rx symbol. A blinded dosing study of 2A1CV5-MCC-DM1, unconjugated 2A1CV5 and PBS employing a single dose of 250 ug DM1/kg (10 mg Ab/kg) administered at day 28 was performed in this established bone-tropic tumor model. Following euthanasia, the animals were radiographed. The hind limbs were disarticulated, fixed in 10% neutral buffered formalin and decalcified. Bones were subsequently processed, embedded, sectioned and a single representative bone from each animal was stained by H&E, TRAP stain and for huCD138 expression (IHC). Bone sections were examined microscopically to determine if residual disease (huCD138+ cells) were present and to estimate the extent of the surface of the medullary cavity and bone spicules that was covered by TRAP+ osteoclasts.

B1: 2A1CV5-MCC-DM1 (conjugate)
heavy: EVQLVESGGGLVKPGGSLRLSCAASGFTFGDYALSWFRQAPGKGLEWVGVSRSKAYGGTTDYAASVKGRFTISRDDSKSTAYLQMNSLKTEDTAVYYCASSGYSSGWTPFDYWGQGTLVTVSSASTKGPSVFPLAPSSKSTSGGTAALGCLVKDYFPEPVTVSWNSGALTSGVHTFPAVLQSSGLYSLSSVVTVPSSSLGTQTYICNVNHKPSNTKVDKKV[omitted - human IgG1 Fc]
light: QSVLTQPPSASGTPGQRVTISCSGSSSNIGSNTVNWYQQLPGTAPKLLIFNYHQRPSGVPDRFSGSKSGSSASLAISGLQSEDEADYYCAAWDDSLNGWVFGGGTKLTVLGQPKAAPSVTLFPPSSEELQANKATLVCLISDFYPGAVTVAWKADSSPVKAGVETTTPSKQSNNKYAASSYLSLTPEQWKSHRSYSCQVTHEGSTVEKTVAPTECS
- Cell line killed by BCMA ADC [1]: Yes
- Cell line killed by BCMA ADC [2]: Yes
- delivery of DM1 into primary myeloma tumor cells [3]: delivered varying levels of DM1 into all 13 patient samples
- killing of huBCMA-expressing myeloma cells (H929) ([4]; CellTiter-Glo): able to target and kill BCMA-expressing myeloma cells (H929)
- Cell line killed by BCMA ADC ([4]; H929): Yes
- increase in potency over 32B5-MCC-DM1 and 29C12-MCC-DM1 ([4]; H929 cells): 2-3 fold
- Cell line killed by BCMA ADC [5]: Yes
- Cell line killed by BCMA ADC [6]: Yes
- antitumor effect of late treatment ([7]; 10 mg Ab/kg IV at day 63 in animals first given PBS or unconjugated 2A1CV5): robust tumor regression
- residual disease in bone (histology) after subsequent treatment ([7]; animals treated on Day 28 with 2A1CV or vehicle, then treated on Days 63 and 84): completely cured of their disease
- antitumor effect (hind limb bioluminescence) ([7]; single dose 250 ug DM1/kg (10 mg Ab/kg) at day 28, IV or IP): significant tumor regression; also recorded: Complete tumor regression
- residual disease in bone (histology, huCD138, TRAP) ([7]; single injection, IV or IP route): completely cured mice of their disease
